# Apparent affinities of Ab-14 variants for a coronavirus HR2 peptide

Binding partner: SARS-CoV-2 spike HR2 peptide, sequence PDVDLGDISGINAS.

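Phage display of a naive human antibody library on the peptide gave the parent. Designed CDR sequences, proposed from the first random library and measured here. Group labels follow the data file (Ctrl: baseline library sampled from a position-specific scoring matrix, with some repeated check sequences; En: ensemble of fine-tuned language models; GP: Gaussian process model; HC: hill climbing; Gen: genetic algorithm; Gibbs: Gibbs sampling; a sequence that several methods proposed may carry one label only). In AlphaSeq, yeast of one mating type display the scFv and yeast of the other type display the target. After mating in shaken culture at 30 °C for 16 h, diploids were selected and their barcode pairs sequenced. Scores were corrected for input abundance and mapped to Kd with protein pairs of known affinity run in the same pool. Mating was done six times.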

Each scFv is VH, the linker GGGGSGGGGSGGGGS, VL, as in the parent Ab-14, and differs from it in the CDRs of the light chain only.
VH: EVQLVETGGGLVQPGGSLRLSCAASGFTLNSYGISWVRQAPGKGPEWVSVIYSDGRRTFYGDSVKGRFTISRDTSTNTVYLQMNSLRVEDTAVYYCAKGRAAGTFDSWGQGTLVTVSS
VL: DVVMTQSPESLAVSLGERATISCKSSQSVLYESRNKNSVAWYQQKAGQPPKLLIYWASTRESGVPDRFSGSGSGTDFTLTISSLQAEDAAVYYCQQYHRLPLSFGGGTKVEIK

Variants are written as CDR1, CDR2 and CDR3 of the light chain (limits as in the source). Parent: KSSQSVLYESRNKNSVA, WASTRES, QQYHRLPLS. Numbers give log10(Kd / nM), so 0 is 1 nM and 3 is 1 µM. Smaller is tighter. The mean shown is taken over the replicates in which the pair was detected. "nd" means that the variant was in the library but no mating with the target was seen in any replicate; the authors take this as a sign of poor binding, and no number exists. Values of this round are not directly comparable with the first-round values of the same sequences. The authors averaged sequences with at least three values out of six and counted those with two or fewer as poor binders. Nonspecific signal, from three strains lacking the peptide, appeared in 4% of pairings of all light chain designs, centred on 2.64 (5% of these signals below 1.59); values are not corrected for it. For each scFv, signals with the empty controls are counted beside the result.

KQDFSCPGESRNKNSVA, DASTRMS, QQYHRLPLS [GP_Gibbs]: -0.17 (6 of 6 replicates; controls 2 of 18).
KFQQSQLYESRQKNSVA, NASKRCS, QQYHRLPLK [GP_Gibbs]: 1.67 (4 of 6 replicates; controls 0 of 18).
HITMGMYVSGRYKSNIA, QAETRMK, QQYDRLPLI [En_Gen]: 1.18 (6 of 6 replicates; controls 0 of 18).
KLSQSVLYESQNKNSVA, KASTRES, QQYHRLPLS [Ctrl]: -0.27 (6 of 6 replicates; controls 0 of 18).
KSSQSVLYESSNKNSVA, WASQRES, QQYHWLPLS [Ctrl]: nd (0 of 6 replicates; controls 0 of 18).
KYSQQNLYEQRNFNNVA, NASYRES, QQYHRLPLS [GP_Gibbs]: 0.89 (6 of 6 replicates; controls 1 of 18).
ALSQSVLYESRNKNSVA, NASTRES, QQYHRLPLS [GP_Gen]: -0.47 (6 of 6 replicates; controls 1 of 18).
KTSQSVLWESRNKNSVA, WASTRES, QQYANLPLS [Ctrl]: 1.63 (1 of 6 replicates; controls 1 of 18).
KVSWLWPYWSRNWNSVA, NASTREQ, QQYHRLPLS [GP_Gibbs]: 0.10 (6 of 6 replicates; controls 1 of 18).
KSSQSTQYESHNKNSVA, WASTRTP, QQYHRLPLS [Ctrl]: 2.25 (5 of 6 replicates; controls 0 of 18).
KLRQVTGYESYNKNSVA, QTSTRVQ, QDYHRLPLS [En_HC]: 1.86 (6 of 6 replicates; controls 1 of 18).
KLSMITGHMSMQRNNVA, EMVTREN, QQYDRLPLS [En_Gen]: 0.65 (6 of 6 replicates; controls 2 of 18).
KIEQSMLYEDRNKNSVA, NASQREV, QAYHRLPLS [GP_Gibbs]: 0.46 (6 of 6 replicates; controls 0 of 18).
KVSQSYLYESRNKNSVA, GASTRES, QQYHRLPLS [GP_HC]: -0.10 (6 of 6 replicates; controls 1 of 18).
KLSQSVLYESRNKNSVA, HASTRSS, QQYHRLPLS [GP_Gen]: 0.08 (6 of 6 replicates; controls 1 of 18).
DSSQSVLYESRNKNSVA, HASTRES, QQYHRLPLS [Ctrl]: 0.76 (6 of 6 replicates; controls 2 of 18).
KMQQSVLYESRNKNSVA, NASQRES, QQYHRLPLS [GP_Gen]: -0.41 (6 of 6 replicates; controls 3 of 18).
KSSQSDLQESRNQNSVA, EASTREA, QQYHRLPLS [GP_Gibbs]: 0.04 (6 of 6 replicates; controls 0 of 18).

Continued, with the values leading:

1.30 (5 of 6 replicates; controls 0 of 18): IVSQLMLWGLHAKNSIA, EAQTRLN, QQYERLPLF [En_Gen].
1.80 (1 of 6 replicates; controls 0 of 18): KSSQSQLYESYNKNSVA, WASTRES, QAYHRLPLS [Ctrl].
1.72 (6 of 6 replicates; controls 0 of 18): KLSATYRFESQNKNNIA, EMTTREE, QCYHRLPLS [En_HC].
0.90 (6 of 6 replicates; controls 0 of 18): KLSQITGHSLMSKNNVA, EMVTREN, QQYDRLPLS [En_Gen].
-0.27 (6 of 6 replicates; controls 0 of 18): KFSQSVLYQSRNKNSVA, NASTRES, QQYHRLPLS [GP_Gen].
2.20 (6 of 6 replicates; controls 0 of 18): KISQSKLMESRNLNSVA, WASTRSS, QQYHRLPLS [Ctrl].
1.73 (6 of 6 replicates; controls 1 of 18): IAFQSWLYESRNKNSVA, GASTRES, QQYHRLPLI [GP_HC].
2.36 (3 of 6 replicates; controls 1 of 18): KLVGDMQSDKNPSENIA, EMSSVEQ, QQYARLPLE [En_Gibbs].
2.50 (5 of 6 replicates; controls 1 of 18): KLGMTVGYEQRNKSRVA, DNNTREQ, QQYDRLPLS [En_HC].
1.14 (6 of 6 replicates; controls 2 of 18): NFSQMVLTGMTLKNSVA, HASTREE, QQYHRLPLI [En_HC].
0.11 (6 of 6 replicates; controls 0 of 18): KLSQSWLYESRWKNSVA, NASQRES, QQYHRLPLS [GP_Gen].
0.09 (6 of 6 replicates; controls 0 of 18): KSQQSWEYGSRNKNSVA, NASQRED, QQYHRLPLS [GP_Gibbs].
1.09 (4 of 6 replicates; controls 0 of 18): MMSYGWLYGSRNKRNVA, DQETRES, QQYDRLPLS [En_HC].
0.26 (6 of 6 replicates; controls 0 of 18): KVSISYLLESRNKNSVA, EASTRER, QQYHRLPLS [GP_HC].
-0.05 (6 of 6 replicates; controls 1 of 18): KLSWDDMSHFNTRSAVA, DMTMRAH, QQYNRLPLD [En_Gibbs].
0.48 (6 of 6 replicates; controls 0 of 18): HMNHEYLDYKNYENNIA, HGSQRLY, QQYSHLPLS [En_Gibbs].
0.18 (6 of 6 replicates; controls 2 of 18): MAYGGDMLEMVTRNSVA, NAETRAD, QDYHRLPLS [En_HC].
0.59 (6 of 6 replicates; controls 0 of 18): KIGLVTNGISFSKNSVA, EQSTRED, QQYDRLPLS [En_HC].
-0.06 (6 of 6 replicates; controls 0 of 18): KVSMLDDGGDRNKNSVA, HASTRES, QQYHRLPLS [GP_Gibbs].

Excerpt, the first 5 entries:

Variant KQDFSCPGESRNKNSVA, DASTRMS, QQYHRLPLS [GP_Gibbs] showed -0.17 (6 of 6 replicates; controls 2 of 18).
Variant KFQQSQLYESRQKNSVA, NASKRCS, QQYHRLPLK [GP_Gibbs] showed 1.67 (4 of 6 replicates; controls 0 of 18).
Variant HITMGMYVSGRYKSNIA, QAETRMK, QQYDRLPLI [En_Gen] showed 1.18 (6 of 6 replicates; controls 0 of 18).
Variant KLSQSVLYESQNKNSVA, KASTRES, QQYHRLPLS [Ctrl] showed -0.27 (6 of 6 replicates; controls 0 of 18).
Variant KSSQSVLYESSNKNSVA, WASQRES, QQYHWLPLS [Ctrl] showed nd (0 of 6 replicates; controls 0 of 18).

Reference: Li et al. 2023, doi:10.1038/s41467-023-39022-2. File: FLAb, binding data.